Experimental data reported in US11584765B2 (priority 2017, dated 2023).

Tested on: C57BL/6 mice
Assay: Antinociception, 55° C. warm-water tail-flick test
Type: in vivo
Conditions: s.c. administration, 55° C. water

SMILES: CCOCC1(CCc2ccccc2)CCN(C2(c3ccc(C)nc3)CCCCC2)CC1
- ED50 (mg/kg) at 30 min on C57BL/6 mice in Warm-water Tail-flick Test: ++ (++ indicates ED 50 </= 10 mg/kg)
